Reference: PubChem BioAssay (NCI)
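A five-concentration, 48-hour dose response in 96-well plates underlies each endpoint, interpolated linearly between surrounding concentrations. Definition used: TGI = concentration required for complete inhibition of growth.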

What was measured:
Assay in all cases: inhibition of tumour cell growth, NCI panel, 48 h
[1] = system: U251 CNS
[2] = system: K-562 leukemia
[3] = system: CAKI-1 renal
[4] = system: SK-MEL-28 melanoma
[5] = system: A549 NSCLC
[6] = system: HOP-92 NSCLC
[7] = system: KM12 colon
[8] = system: NCI-H522 lung
[9] = system: TK-10 renal
[10] = system: CCRF-CEM leukemia
[11] = system: OVCAR-5 ovarian
[12] = system: SF-539 CNS
[13] = system: UACC-62 melanoma
[14] = system: XF 498 CNS
[15] = system: UO-31 renal
[16] = system: UACC-257 melanoma
[17] = system: DMS 273 small cell lung
[18] = system: OVCAR-8 ovarian
[19] = system: SK-MEL-2 melanoma
[20] = system: SNB-78 CNS
[21] = system: SK-OV-3 ovarian
[22] = system: A498 renal
[23] = system: OVCAR-4 ovarian
[24] = system: NCI-H460 lung
[25] = system: OVCAR-3 ovarian
[26] = system: SF-268 CNS
[27] = system: SW-620 colon
[28] = system: M19-MEL melanoma
[29] = system: HT29 colon
[30] = system: IGROV1 ovarian
[31] = system: LXFL 529 NSCLC
[32] = system: HL-60(TB) leukemia
[33] = system: SR leukemia
[34] = system: HCC-2998 colon
[35] = system: SNB-75 CNS
[36] = system: RPMI-8226 leukemia
[37] = system: M14 melanoma
[38] = system: SN12C renal
[39] = system: RXF 393 renal
[40] = system: LOX IMVI melanoma
[41] = system: RXF-631 renal
[42] = system: NCI-H322M lung
[43] = system: 786-0 renal
[44] = system: NCI-H226 lung
[45] = system: SK-MEL-5 melanoma
[46] = system: NCI-H23 lung
[47] = system: DLD-1 colon
[48] = system: SF-295 CNS
[49] = system: MALME-3M melanoma
[50] = system: MOLT-4 leukemia
[51] = system: ACHN renal
[52] = system: HOP-62 NSCLC
[53] = system: SNB-19 CNS
[54] = system: HCT-116 colon

Structure (SMILES): COc1ccc2c(c1Oc1ccccc1)C13CCN(C)C(C2)C12C=CC(C[C@H]2C(C)(C)O)C3 (some centres undefined)
- TGI [1]: 24.2 µM
- TGI [2]: 19.9 µM
- TGI [3]: 22.3 µM
- TGI [4]: 30.6 µM
- TGI [5]: 31.7 µM
- TGI [6]: 15.3 µM
- TGI [7]: 30.2 µM
- TGI [8]: 31.5 µM
- TGI [9]: 28 µM
- TGI [10]: 24 µM
- TGI [11]: 31.7 µM
- TGI [12]: 27.5 µM
- TGI [13]: 28.6 µM
- TGI [14]: 22.3 µM
- TGI [15]: 15.2 µM
- TGI [16]: 31.1 µM
- TGI [17]: 35.5 µM
- TGI [18]: 29.6 µM
- TGI [19]: 31.7 µM
- TGI [20]: 28.4 µM
- TGI [21]: 27 µM
- TGI [22]: 28.6 µM
- TGI [23]: 28.8 µM
- TGI [24]: 25.5 µM
- TGI [25]: 27.8 µM
- TGI [26]: 25.8 µM
- TGI [27]: 28.4 µM
- TGI [28]: 32 µM
- TGI [29]: 13.8 µM
- TGI [30]: 32.1 µM
- TGI [31]: 26.4 µM
- TGI [32]: 22.7 µM
- TGI [33]: 22.7 µM
- TGI [34]: 8.65 µM
- TGI [35]: 19.6 µM
- TGI [36]: 24.7 µM
- TGI [37]: 29.7 µM
- TGI [38]: 28.7 µM
- TGI [39]: 23 µM
- TGI [40]: 19.3 µM
- TGI [41]: 34.4 µM
- TGI [42]: 27.6 µM
- TGI [43]: 28.9 µM
- TGI [44]: 35.5 µM
- TGI [45]: 28.3 µM
- TGI [46]: 32.4 µM
- TGI [47]: 32.2 µM
- TGI [48]: 28.4 µM
- TGI [49]: 32.7 µM
- TGI [50]: 18.3 µM
- TGI [51]: 27.7 µM
- TGI [52]: 31.4 µM
- TGI [53]: 26.5 µM
- TGI [54]: 29.8 µM
